This is a selection; strong and weak results do not stand in their true shares. Some results for these compounds are left out of this collection, so the calls shown say nothing about other tests. Calls of active or inactive are those of the source. No stated cut-off is given here; in the data, active means inhibition above about 30%; inactive means the rest.
Target: Ubiquitin carboxyl-terminal hydrolase 10 (Homo sapiens) (UniProt Q14694)
Assay: inhibitors of human USP10 deubiquitinase (AID 1645856)
Settings: purified USP10, Ub-rhodamine fluorescence, 60 min; at 20 µM; stronger effect = higher value

Protein sequences, listed by entry. Tags and fused reporters are not part of them.
UniProt Q14694, whole entry: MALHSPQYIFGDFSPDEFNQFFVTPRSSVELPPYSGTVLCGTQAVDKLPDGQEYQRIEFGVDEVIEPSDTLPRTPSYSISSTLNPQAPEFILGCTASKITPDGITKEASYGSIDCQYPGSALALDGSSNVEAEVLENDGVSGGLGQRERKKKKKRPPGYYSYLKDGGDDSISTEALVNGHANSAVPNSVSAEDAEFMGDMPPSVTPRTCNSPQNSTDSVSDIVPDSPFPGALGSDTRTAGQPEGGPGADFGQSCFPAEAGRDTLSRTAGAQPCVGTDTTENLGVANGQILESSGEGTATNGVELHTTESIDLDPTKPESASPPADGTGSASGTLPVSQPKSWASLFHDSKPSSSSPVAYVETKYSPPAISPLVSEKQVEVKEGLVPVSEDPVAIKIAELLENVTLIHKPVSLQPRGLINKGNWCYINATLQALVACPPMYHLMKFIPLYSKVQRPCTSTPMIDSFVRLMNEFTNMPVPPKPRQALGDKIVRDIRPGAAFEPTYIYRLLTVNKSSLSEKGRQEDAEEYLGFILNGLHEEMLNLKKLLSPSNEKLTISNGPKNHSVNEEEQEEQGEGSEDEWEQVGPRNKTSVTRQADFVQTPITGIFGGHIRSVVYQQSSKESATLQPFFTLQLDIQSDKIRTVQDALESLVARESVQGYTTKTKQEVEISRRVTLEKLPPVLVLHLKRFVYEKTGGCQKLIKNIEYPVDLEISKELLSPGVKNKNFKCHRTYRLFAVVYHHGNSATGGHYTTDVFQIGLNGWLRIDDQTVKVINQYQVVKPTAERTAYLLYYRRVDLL

Row | Structure (SMILES) | inhibition
1 | COc1ccc(C(=O)NCC2(N3CCOCC3)CCCCC2)cc1 | inactive: -0.0201%
2 | O=C(NCC1(N2CCCCC2)CCCCC1)c1ccc2c(c1)OCCO2 | inactive: -0.44%
3 | Cc1c(C(=O)NCC2(N(C)C)CCCCC2)oc2ccc(F)cc12 | inactive: -1.21%
4 | COc1cccc(C(=O)NCC2(N3CCCCC3)CCCCC2)c1 | inactive: -3.74%
5 | Cc1c(C(=O)NCC2(N(C)C)CCCCC2)oc2ccccc12 | inactive: 2.06%
6 | O=C(NCC1(N2CCCCC2)CCCCC1)c1ccc2ccccc2c1 | inactive: -0.014%
7 | O=C(NCC1(N2CCOCC2)CCCCC1)c1ccccc1F | inactive: 3.47%

From PubChem BioAssay AID1645856 (Buhrlage Lab, Dana-Farber Cancer Institute and Novartis …, 2021)
